Test results as given in publication PMC6592956, “Characterization of Porcine Hepatic and Intestinal Drug Metabolizing CYP450: Comparison with Human Orthologues from A Quantitative, Activity and Selectivity Perspective” (Scientific Reports, 2019).

System: porcine hepatic CYP450 enzymes
Assay: Stepwise multiple linear regression of probe activity on CYP450 protein concentrations and on other metabolites
Conditions: Dependent Variable: OH_CZ, Concentration 6, with enzymes

B1: CYP2E1_s (protein, UniProt P79383 1-495, looked up)
Cytochrome P450 2E1: MTALGITVALLVWLVTLLLISIWKHIHSSWKLPPGPFPLPIVGNIFQLDLKNIPKSFTMLAERYGPVFTVYLGSRRIVVLHGYKAVKEVLLHYKNEFSGRGEIPTFQVHKDKGVIFNNGPTWRDTRRFSLTTLRDFGMGKQGNEQRIQREAHFLLEALRKTHGQPFDPTFLIGCAPCNVISDILFRQHFDYNDKTCLRLMSMFNENFYLLSTGWIQLYNNFSGYLRYLPGSHRKLMKNISEIKDYALERVKDHRDSLEPSCPRDFTDTLLMEMEKEKYSAEPIYTLDNIAVTVADMFFAGTETTSTTLRYGLLILMKYPEVEEKLHEEIDRVIGPNRIPAIKDRLVMPYLDAVVHEIQRFIDLIPSNLPHEATRDTDFRDYIIPKGTVVIPTLDSVLYDSQEFPEPEKFKPEHFLNENGKFKYSDHFKAFSAGKRVCVGEGLARMELFLFMAAILQHFNLKSLVDPKDIDLSPIAIGFAKIPPHYKLCVIPRSQV
Unstandardized Coefficients B (Model 1, predictor CYP2E1_s): 95,371 | Unstandardized Coefficients B (Model 2, predictors CYP2E1_s, CYP2A19_s): 113,525 | Unstandardized Coefficients B (Model 3, predictors CYP2E1_s, CYP2A19_s, CYP2C49_s): 91,073
